# Results as given in patent publication US20020090380A1, “Novel formulation comprising thymol useful in the treatment of drug resistant bacterial infections” (priority 2000, published 2002).
# System: Ethidium bromide resistant strain of Mycobacterium smegmetis
# Assay: Growth in broth with drug, ethidium bromide resistant mutant
# Type: cell-based
smiles,measurement,value
CC[n+]1c(-c2ccccc2)c2cc(N)ccc2c2ccc(N)cc21 [ethidium bromide],concentration at which the mutant grows well,12 µg/mL
